Values of other authors as cited in patent US11197933B2, “Polysubunit opioid prodrugs resistant to overdose and abuse” (Elysium Therapeutics, Inc., priority 2017, dated 2021).

Test system: opioid receptors
Conditions: cited from earlier work

## C=CCN1CC[C@]23c4c5ccc(O)c4O[C@H]2C(=O)CC[C@@]3(O)[C@H]1C5 [naloxone]
0.4-0.8 mg intramuscularly or intravenously, in man
  Effect on morphine-like opioid agonists: prevent or reverse the effects of morphine-like opioid agonists
One mg administered intravenously
  Block of the effects of 25 mg of heroin: completely block the effects of 25 mg of heroin
